According to patent publication US9040533B2, “Oxime-substituted-quinoxaline-type piperidine compounds as ORL-1 modulators” (priority 2012, dated 2015):
pEC50, pKi: −log10 of the molar value.

Columns and labels:
[1] = biological target: T1, human opioid receptor-like (ORL-1) (Homo sapiens, UniProt P41146); test: ORL-1 receptor [35S]GTPγS functional binding assay; assay type: biochemical; conditions: for pEC50: read-out: GTPγS ORL-1 EC50 [mean ± SEM]
[2] = biological target: human μ-opioid receptors (Homo sapiens, UniProt P35372); test: In vitro mu-opioid receptor binding assay ([3H]-diprenorphine displacement); conditions: read-out: Mu opioid receptor Ki [Average ± Std Deviation]
[3] = biological target: kappa opioid receptor (Homo sapiens, UniProt P41145); test: In vitro kappa-opioid receptor binding assay ([3H]-U69,593 displacement); conditions: read-out: Kappa opioid receptor Ki [Average ± Std Deviation]
[4] = biological target: delta opioid receptor (Homo sapiens, UniProt P41143); test: In vitro delta-opioid receptor binding assay ([3H]-Naltrindole displacement); conditions: read-out: Delta opioid receptor Ki [Average ± Std Deviation]
[5] = biological target: T1, human opioid receptor-like (ORL-1); test: In vitro ORL-1 receptor binding assay ([3H]-nociceptin displacement); conditions: read-out: ORL-1 Ki [Average ± Std Deviation]
[6] = biological target: human μ-receptors (Homo sapiens, UniProt P35372); test: Mu-opioid receptor [35S]GTPγS functional assay

Structure (SMILES)	GTPγS ORL-1 Emax [mean ± SEM] [1] [%]	pEC50 [1]	pKi [2]	pKi [3]	pKi [4]	pKi [5]	GTPγS Mu Emax [mean ± SEM] [6] [%]
O=C(O)/C(=N\OCCO)c1nc2ccccc2n([C@H]2C[C@H]3CCC[C@@H](C2)N3C2CC3CCCC(C3)C2)c1=O (stereo partly shown) [Compound 4]	41.3 ± 3.7	7.37	5.51	5.92	< 4.70	8.29	
CCN(CC)C(=O)CO/N=C(\C(=O)O)c1nc2ccccc2n([C@H]2C[C@H]3CCC[C@@H](C2)N3C2CC3CCCC(C3)C2)c1=O (stereo partly drawn) [Compound 5, [4-((1R,3R,7S)-9-bicyclo[3.3.1]non-3-yl-9-aza-bicyclo[3.3.1]non-3-yl)-3-oxo-3,4-dihydro-quinoxalin-2-yl]-diethylcarbamoylmethoxyimino-acetic acid]	70.7 ± 2.9	8.17	6.33	7.13	4.94	8.91	
O=C(O)C(=NOCCO)c1nc2ccccc2n([C@H]2C[C@H]3CCC[C@@H](C2)N3C2CC3CCCCC(C3)C2)c1=O (stereo partly shown) [Compound 15]	57.33 ± 5.24	8.36	6.02	6.82	4.93	8.47	
CON=C(C(=O)O)c1nc2ccccc2n([C@H]2C[C@H]3CCC[C@@H](C2)N3C2CC3CCCCC(C3)C2)c1=O (stereo partly shown) [Compound 17]	64.5 ± 1.32	8.92	6.33	7.04	5.32	8.79	
O=C(O)C(=NOCCO)c1nc2ccccc2n([C@H]2C[C@H]3CC[C@@H](C2)N3C2CC3CCCCC(C3)C2)c1=O (stereo partly shown) [Compound 19]	55.67 ± 4.06	7.72	6.15	6.37	< 4.70	8.53	
CO/N=C(\C(=O)O)c1nc2ccccc2n([C@H]2C[C@H]3CC[C@@H](C2)N3C2CC3CCCCC(C3)C2)c1=O (stereo partly drawn) [Compound 20, (Z)-2-(4-((1R,3R)-8-(bicyclo[4.3.1]decan-8-yl)-8-azabicyclo[3.2.1]octan-3-yl)-3-oxo-3,4-dihydroquinoxalin-2-yl)-2-(methoxyimino)acetic acid]	71.7 ± 2.4	8.15	6.24	6.59	5.07	8.80	
CC(=NOCC(=O)O)c1nc2ccccc2n(C2CC3CCC(C2)N3C2CC3CCCCC(C3)C2)c1=O (stereo not shown) [Compound 22]	36 ± 1.53	7.44	6.21	6.37	5.58	8.14	
C/C(=N\OCC(=O)O)c1nc2ccccc2n([C@H]2C[C@H]3CCC[C@@H](C2)N3C2CC3CCCCC(C3)C2)c1=O (stereo partly drawn) [Compound 24, 2-((E)-1-(4-((1R,3R)-9-(bicyclo[4.3.1]decan-8-yl)-9-azabicyclo[3.3.1]nonan-3-yl)-3-oxo-3,4-dihydroquinoxalin-2-yl)ethylideneaminooxy)acetic acid]	29.7 ± 2.3	8.19	6.86	7.09	5.80	8.70	
CC[C@@H]1C[C@H]2CC(N3[C@@H]4CCC[C@H]3CC(n3c(=O)c(/C(CCC(=O)O)=N/OC)nc5ccccc53)C4)C[C@@H](C1)C2 (stereo partly shown) [Compound 25]	42 ± 1.53	7.80	7.66	7.14	5.61	8.46	
CCO/N=C(\CCC(=O)O)c1nc2ccccc2n([C@H]2C[C@H]3CCC[C@@H](C2)N3C2CC3CC(CC)CC(C3)C2)c1=O (stereo partly shown) [Compound 26]	31.3 ± 1.9	7.70	7.59	6.79	5.92	8.05	−0.33 ± 0.67
CC1CC2CC(C1)CC(N1[C@@H]3CCC[C@H]1C[C@@H](n1c(=O)c(/C(CCC(=O)O)=N/OCCCN(C)C)nc4ccccc41)C3)C2 (stereo partly shown) [Compound 28]	54.7 ± 2.0	8.22	6.97	8.03	4.94	8.65	
CCON=C(C(=O)O)c1nc2ccccc2n([C@H]2C[C@H]3CCC[C@@H](C2)N3C2CC3CCCC(C3)C2)c1=O (stereo partly shown) [Compound 30]	39 ± 4.92	7.40	6.08	6.39	< 4.70	8.42	
CC(C)ON=C(C(=O)O)c1nc2ccccc2n([C@H]2C[C@H]3CCC[C@@H](C2)N3C2CC3CCCC(C3)C2)c1=O (stereo partly shown) [Compound 31]	32.25 ± 3.77	7.09	6.45	6.83	5.44	8.39	
